Measurements taken from patent publication US10294229B2, “Heteroaryl substituted aminopyridine compounds” (BRISTOL-MYERS SQUIBB COMPANY, priority 2015, dated 2019).

Protein sequences, listed by entry. Tags and fused reporters are not part of them.
UniProt Q9NWZ3, whole entry: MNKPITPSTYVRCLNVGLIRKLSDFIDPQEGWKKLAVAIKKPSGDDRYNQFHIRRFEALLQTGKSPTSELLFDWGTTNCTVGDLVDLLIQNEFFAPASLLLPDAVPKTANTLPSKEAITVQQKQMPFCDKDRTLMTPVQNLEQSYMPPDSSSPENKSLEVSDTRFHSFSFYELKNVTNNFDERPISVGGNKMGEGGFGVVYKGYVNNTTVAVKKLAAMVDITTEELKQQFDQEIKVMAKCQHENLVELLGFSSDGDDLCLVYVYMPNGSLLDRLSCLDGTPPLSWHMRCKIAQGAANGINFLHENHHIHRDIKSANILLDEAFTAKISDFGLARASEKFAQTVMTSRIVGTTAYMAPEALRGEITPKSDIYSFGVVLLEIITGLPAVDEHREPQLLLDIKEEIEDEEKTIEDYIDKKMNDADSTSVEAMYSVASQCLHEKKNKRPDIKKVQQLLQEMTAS

Experiments:
[1] = test system: Human whole blood stimulated with a TLR2 agonist (lipoteichoic acid), IL-6 levels; test: IRAK4 Whole Blood Assay; details: read-out: Whole Blood EC50, lipoteichoic acid 10 μg/mL
Method: Human whole blood containing the anti-coagulant ACD-A was plated in 384-well plate (25 μL/well) and incubated with compounds for 60 minutes at 37° C. in a 5% CO2 incubator. The blood was stimulated with a TLR2 agonist, 10 μg/mL final concentration of lipoteichoic acid (Invivogen, San Diego, Calif.) in 25 μL RPMI (Gibco) for 5 hours in a 5% CO2 incubator. At the end of the incubation, plates were centrifuged at 2300 rpm for 5 minutes. Supernatants were harvested and analyzed for IL-6 levels by Flow Cytometry beads assay (BD Biosciences, San Jose, Calif.).

Caco-2 cells = test: Caco-2 Permeability Assay; details: test compound 3 μM
Method: Caco-2 Permeability Assay
Thirteen to 27 days prior to assay, Caco-2 cells were seeded onto collagen-coated polycarbonate filter membranes in 24-well transwell plates at a density of 1.45×10^5 cells/cm^2, approximately 4.8×10^4 cells per well. The cells were grown in a culture medium consisting of DMEM supplemented with 10% fetal bovine serum, 10 mM HEPES, 1% nonessential amino acids, 2 mM L-glutamine, 100 U/mL penicillin-G, and 100 μg/mL streptomycin. The culture medium was replaced every 3 days and the cells were maintained at 37° C. in a 95% relative humidity and 5% CO2 atmosphere. The cells were evaluated for tight junction formation just prior to assay. The test compound was solubilized to 10 mM in 100% DMSO and diluted to 3 μM in assay buffer. Permeability studies were initiated by adding 200 μL assay buffer plus/minus compound to the apical transwell compartment and 600 μL assay buffer plus/minus compound to the basolateral compartment of the 24-well transwell low-binding cluster plate. For apical-to-basolateral (A to B) permeability (absorptive direction), buffer containing compound was placed in the apical compartment (donor wells), while buffer alone was placed in the corresponding basolateral compartments (receiver wells). […] The samples were subsequently analyzed by LC-MS/MS to determine concentrations of compound.

IRAK4 = IRAK4 (Homo sapiens (Human), UniProt Q9NWZ3); test: IRAK4 Inhibition Assay; details: read-out: IRAK4 IC50; ATP 500 μM; IRAK4 0.6 nM
Method: The assays were performed in U-bottom 384-well plates. The final assay volume was 30 μL prepared from 15 μL additions of enzyme and substrates (fluoresceinated peptide and ATP) and test compounds in assay buffer (20 mM HEPES pH 7.2, 10 mM MgCl2, 0.015% Brij 35 and 4 mM DTT). The reaction was initiated by the combination of IRAK4 with substrates and test compounds. The reaction mixture was incubated at room temperature for 60 min. and terminated by adding 45 μL of 35 mM EDTA to each sample. The reaction mixture was analyzed on the Caliper LABCHIP® 3000 (Caliper, Hopkinton, Mass.) by electrophoretic separation of the fluorescent substrate and phosphorylated product. Inhibition data were calculated by comparison to no enzyme control reactions for 100% inhibition and vehicle-only reactions for 0% inhibition. The final concentrations of reagents in the assays are ATP, 500 μM; FL-IPTSPITTTYFFFKKK peptide 1.5 μM; IRAK4, 0.6 nM; and DMSO, 1.6%.

EC50 [1] [nM] | Caco-2 Permeability (Caco-2 cells) [×10⁻⁶ cm/s] | SMILES | IC50 (IRAK4) [nM]
200 | 16 | CC(C)Nc1cc(-n2ncc3cc(C#N)cnc32)ncc1-n1cc(CC(F)C(C)(C)O)nn1 (single isomer, unassigned) | 2
420 | – | CC(C)Nc1cc(-n2ncc3cc(C#N)cnc32)ncc1C1=NOC(CCC(C)(C)O)C1 (single isomer, unassigned) [435, enantiomer 1] | –
480 | 26.4 | CC(C)Nc1cc(-n2ncc3cc(C#N)cnc32)ncc1C1=NOC(CCC(C)(C)O)C1 (single isomer, unassigned) [435, enantiomer 2] | –

SMILES | EC50 [1] [nM] | Caco-2 Permeability (Caco-2 cells) [×10⁻⁶ cm/s] | IC50 (IRAK4) [nM]
CC(C)Nc1cc(-n2ncc3cc(N)cnc32)ncc1-n1cc(CCC(C)(C)O)nn1 | 460 | – | 20
